Experimental data from patent US9884844B2 (priority 2012, dated 2018).

The chains behind the UniProt entries cited, without tags or fusion partners. Where a name states a change or a piece, a line headed by the entry shows the natural chain unless it says otherwise.
UniProt P41146: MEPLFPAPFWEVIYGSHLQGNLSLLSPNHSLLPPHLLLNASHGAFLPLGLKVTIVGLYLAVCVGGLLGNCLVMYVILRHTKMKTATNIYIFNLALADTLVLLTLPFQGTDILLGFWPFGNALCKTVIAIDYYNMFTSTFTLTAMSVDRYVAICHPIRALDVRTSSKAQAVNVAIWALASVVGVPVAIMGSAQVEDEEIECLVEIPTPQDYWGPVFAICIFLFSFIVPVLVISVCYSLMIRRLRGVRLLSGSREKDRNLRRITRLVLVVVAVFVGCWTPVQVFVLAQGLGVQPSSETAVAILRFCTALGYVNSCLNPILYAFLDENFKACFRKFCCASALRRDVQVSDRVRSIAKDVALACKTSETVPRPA

Target: human NOP (Homo sapiens, UniProt P41146)
Test: cAMP assay on cells expressing human NOP (NOP assay)
Settings: read-out: NOP EC50, HEK cells expressing human NOP

## NC(=O)[C@H]1CC12C(=O)N(C1CCN(C3Cc4cccc5cccc3c45)CC1)c1ccccc12 (some centres unmarked)
  EC50: < 100 nM

## CN1CC2(C(=O)N(C3CCN(C4Cc5cccc6cccc4c56)CC3)c3ccccc32)N(C)C1=O (centres unmarked)
  EC50: < 100 nM

## CNC(=O)CC1(O)C(=O)N(C2CCN(C3Cc4cccc5ccc(OC)c3c45)CC2)c2ccccc21 (centres unmarked)
  EC50: < 100 nM

## COc1ccc(Cl)c(OC(CCN2CCC(N3C(=O)C(CC(=O)N(C)C)c4ccccc43)CC2)C(C)C)c1 (centres unmarked)
  EC50: 100 to 1000 nM

## CNC(=O)CC1(O)C(=O)N(C2CCN([C@H]3c4cccc5cccc(c45)[C@]3(C)O)CC2)c2ccccc21 (some centres unmarked)
  EC50: 100 to 1000 nM

## CNC(=O)C[C@@]1(C)C(=O)N(C2CCN([C@H]3Cc4cccc5cccc3c45)CC2)c2ccccc21
  EC50: < 100 nM

## CNC(=O)CC1(F)C(=O)N(C2CCN([C@H]3c4cccc5cccc(c45)[C@@H]3O)CC2)c2ccccc21 (some centres unmarked)
  EC50: > 5000 nM

## CNC(=O)CC1C(=O)N(C2CCN(Cc3cccc4cccc(C)c34)CC2)c2ccccc21 (centres unmarked)
  EC50: < 100 nM

## CNC(=O)OC1C(=O)N(C2CCN(C3Cc4cccc5cccc3c45)CC2)c2ccccc21 (centres unmarked)
  EC50: < 100 nM

## CNC(=O)C[C@@]1(O)C(=O)N(C2CCN([C@@H]3c4cccc5cccc(c45)[C@H]3O)CC2)c2ccccc21
  EC50: 100 to 1000 nM

## O=C1NCC(CC2C(=O)N(C3CCN(C4Cc5cccc6cccc4c56)CC3)c3ccccc32)O1 (centres unmarked)
  EC50: < 100 nM

## CNC(=O)C[C@@]1(O)C(=O)N(C2CCN([C@H]3c4cccc5cccc(c45)[C@@H]3O)CC2)c2ccccc21
  EC50: < 100 nM

## O=C(/C=C1/C(=O)N(C2CCN(C3Cc4cccc5cccc3c45)CC2)c2ccccc21)N1CCCCC1 (centres unmarked)
  EC50: > 5000 nM

## CNC(=O)C[C@@]1(C)C(=O)N(C2CCN([C@@]3(C)CCc4ccccc43)CC2)c2ccccc21
  EC50: < 100 nM

## CNC(=O)CCC1(O)C(=O)N(C2CCN(C3Cc4cccc5cccc3c45)CC2)c2ccccc21 (centres unmarked)
  EC50: < 100 nM

## CNC(=O)CC1(OC)C(=O)N(C2CCN(CCC(Oc3cc(OC)ccc3Cl)C(C)C)CC2)c2ccccc21 (centres unmarked)
  EC50: 100 to 1000 nM

## CNC(=O)CC1(C)C(=O)N(C2CCN(C3(C)CCc4ccccc43)CC2)c2ccccc21 (centres unmarked)
  EC50: < 100 nM

## CNC(=O)CC1(O)C(=O)N(C2CCN(CCC(Oc3cc(OC)ccc3Cl)C(C)C)CC2)c2ccccc21 (centres unmarked)
  EC50: < 100 nM

## C[C@@]1(C[C@H](O)CN)C(=O)N(C2CCN([C@@H]3Cc4cccc5cccc3c45)CC2)c2ccccc21
  EC50: > 5000 nM

## CC(=O)OC1C(=O)N(C2CCN(C3Cc4cccc5cccc3c45)CC2)c2ccccc21 (centres unmarked)
  EC50: < 100 nM

## CNC(=O)CC1(C)C(=O)N(C2CCN([C@H]3c4cccc5cccc(c45)[C@]3(C)O)CC2)c2ccccc21 (some centres unmarked)
  EC50: 100 to 1000 nM

## CN(C)C(=O)CC1(C)C(=O)N(C2CCN([C@H]3c4cccc5cccc(c45)[C@@H]3O)CC2)c2ccccc21 (some centres unmarked)
  EC50: < 100 nM

## CNC(=O)CC1(O)C(=O)N(C2CCN(C3Cc4cccc5ccnc3c45)CC2)c2ccccc21 (centres unmarked)
  EC50: > 5000 nM

## COc1ccc(Cl)c(OC(CCN2CCC(N3C(=O)C(O)(CC(N)=O)c4ccccc43)CC2)C(C)C)c1 (centres unmarked)
  EC50: < 100 nM

## Cc1cccc2cccc(CN3CCC(N4C(=O)C(O)(CC5CNC(=O)O5)c5ccccc54)CC3)c12 (centres unmarked)
  EC50: 1000 to 5000 nM

## COCCC1(O)C(=O)N(C2CCN([C@H]3c4cccc5cccc(c45)C3O)CC2)c2ccccc21 (some centres unmarked)
  EC50: > 5000 nM

## CN(C)C(=O)CC1(C)C(=O)N(C2CCN(C3Cc4cccc5cccc3c45)CC2)c2ccccc21 (centres unmarked)
  EC50: < 100 nM

## COc1ccc(Cl)c(OC(CCN2CCC(N3C(=O)C(O)(CC(=O)N(C)C)c4ccccc43)CC2)C(C)C)c1 (centres unmarked)
  EC50: 100 to 1000 nM

## COCCC1(C)C(=O)N(C2CCN([C@@H]3Cc4cccc5cccc3c45)CC2)c2ccccc21 (some centres unmarked)
  EC50: < 100 nM

## CNC(=O)C[C@@]1(F)C(=O)N(C2CCN(C3c4cccc5cccc(c45)[C@@H]3O)CC2)c2ccccc21 (single isomer, unassigned)
  EC50: > 5000 nM

## Cn1ncnc1CC1(C)C(=O)N(C2CCN(C3c4cccc5cccc(c45)C3O)CC2)c2ccccc21 (centres unmarked)
  EC50: > 5000 nM

## CNC(=O)C[C@]1(F)C(=O)N(C2CCN(C3c4cccc5cccc(c45)[C@@H]3O)CC2)c2ccccc21 (single isomer, unassigned)
  EC50: > 5000 nM

## CNC(=O)CC1(OC)C(=O)N(C2CCN(C3Cc4cccc5cccc3c45)CC2)c2ccccc21 (centres unmarked)
  EC50: < 100 nM

## CNC(=O)CC1(O)C(=O)N(C2CCN(C3Cc4cccc5cccc3c45)CC2)c2ccccc21 (centres unmarked)
  EC50: < 100 nM

## CNC(=O)CC1(O)C(=O)N(C2CCN(C3(C)CCCc4ccccc43)CC2)c2ccccc21 (centres unmarked)
  EC50: < 100 nM

## O=C1C(CC(O)CN(Cc2ccccc2)Cc2ccccc2)c2ccccc2N1C1CCN(C2Cc3cccc4cccc2c34)CC1 (centres unmarked)
  EC50: > 5000 nM

## CNC(=O)C[C@@]1(O)C(=O)N(C2CCN([C@H]3Cc4cccc5cccc3c45)CC2)c2ccccc21
  EC50: < 100 nM

## CNC(=O)C(C)C1(O)C(=O)N(C2CCN(C3Cc4cccc5cccc3c45)CC2)c2ccccc21 (centres unmarked)
  EC50: < 100 nM

## Cc1cccc2cccc(CN3CCC(N4C(=O)C(O)(CC(O)CN)c5ccccc54)CC3)c12 (centres unmarked)
  EC50: 1000 to 5000 nM

## CNC(=O)CC1(C)C(=O)N(C2CCN([C@H]3c4cccc5cccc(c45)[C@@H]3OC)CC2)c2ccccc21 (some centres unmarked)
  EC50: < 100 nM

## CNC(=O)C1CC12C(=O)N(C1CCN(C3Cc4cccc5cccc3c45)CC1)c1ccccc12 (centres unmarked)
  EC50: 1000 to 5000 nM

## CNC(=O)CC1(OC)C(=O)N(C2CCN([C@H]3c4cccc5cccc(c45)[C@@H]3O)CC2)c2ccccc21 (some centres unmarked)
  EC50: < 100 nM

## CNC(=O)CC1(C)C(=O)N(C2CCN(C3(C)CCCc4ccccc43)CC2)c2ccccc21 (centres unmarked)
  EC50: < 100 nM

## CNC(=O)C[C@]1(C)C(=O)N(C2CCN([C@H]3c4ccccc4CC[C@@H]3O)CC2)c2ccccc21
  EC50: > 5000 nM

## CNC(=O)CC1C(=O)N(C2CCN(C3(C)CCCc4ccccc43)CC2)c2ccccc21 (centres unmarked)
  EC50: < 100 nM

## CNC(=O)C[C@]1(F)C(=O)N(C2CCN(C3c4cccc5cccc(c45)[C@H]3O)CC2)c2ccccc21 (single isomer, unassigned)
  EC50: > 5000 nM

## CNC(=O)CC1(O)C(=O)N(C2CCN(C3c4cccc5cccc(c45)[C@@H]3C)CC2)c2ccccc21 (some centres unmarked)
  EC50: < 100 nM

## CNC(=O)CC1(OC)C(=O)N(C2CCN(CCC(Oc3cccc(OC)c3)C(C)C)CC2)c2ccccc21 (centres unmarked)
  EC50: > 5000 nM

## CNC(=O)CC1(O)C(=O)N(C2CCN(Cc3cccc4cccc(C)c34)CC2)c2ccccc21 (centres unmarked)
  EC50: < 100 nM

## CNC(=O)CC1C(=O)N(C2CCN(CCC(Oc3cc(OC)ccc3Cl)C(C)C)CC2)c2ccccc21 (centres unmarked)
  EC50: < 100 nM

## CNC(=O)C[C@]1(C)C(=O)N(C2CCN([C@H]3CCCc4ccccc43)CC2)c2ccccc21
  EC50: < 100 nM

## COc1ccc(Cl)c(OC(CCN2CCC(N3C(=O)C(CC(N)=O)c4ccccc43)CC2)C(C)C)c1 (centres unmarked)
  EC50: < 100 nM

## CNC(=O)C[C@]1(C)C(=O)N(C2CCN([C@H]3c4cccc5cccc(c45)C3(F)F)CC2)c2ccccc21
  EC50: 100 to 1000 nM

## CNC(=O)CC1(O)C(=O)N(C2CCN([C@H]3c4cccc5cccc(c45)[C@@H]3O)CC2)c2ccccc21 (some centres unmarked)
  EC50: < 100 nM

## O=C1NCCC12C(=O)N(C1CCN(C3Cc4cccc5cccc3c45)CC1)c1ccccc12 (centres unmarked)
  EC50: 100 to 1000 nM

## CN(C)C(=O)CC1C(=O)N(C2CCN(C3Cc4cccc5cccc3c45)CC2)c2ccccc21 (centres unmarked)
  EC50: < 100 nM

## CNC(=O)C[C@]1(C)C(=O)N(C2CCN([C@@]3(C)CCCc4ccccc43)CC2)c2ccccc21
  EC50: < 100 nM

## NC(=O)CC1(O)C(=O)N(C2CCN(C3Cc4cccc5cccc3c45)CC2)c2ccccc21 (centres unmarked)
  EC50: 100 to 1000 nM

## CNC(=O)C(C)C1(F)C(=O)N(C2CCN(C3Cc4cccc5cccc3c45)CC2)c2ccccc21 (centres unmarked)
  EC50: < 100 nM

## CN(C)CC(O)CC1(C)C(=O)N(C2CCN(C3Cc4cccc5cccc3c45)CC2)c2ccccc21 (centres unmarked)
  EC50: > 5000 nM

## CN1C(=O)NCC12C(=O)N(C1CCN(C3Cc4cccc5cccc3c45)CC1)c1ccccc12 (centres unmarked)
  EC50: < 100 nM

## CNC(=O)CC1(C)C(=O)N(C2CCN(C3(C)Cc4cccc5cccc3c45)CC2)c2ccccc21 (centres unmarked)
  EC50: < 100 nM

## NC[C@@H](O)CC1(O)C(=O)N(C2CCN(C3Cc4cccc5cccc3c45)CC2)c2ccccc21 (single isomer, unassigned)
  EC50: < 100 nM

## CCOC(=O)CC1C(=O)N(C2CCN([C@H]3c4cccc5cccc(c45)[C@H]3C)CC2)c2ccccc21 (some centres unmarked)
  EC50: 100 to 1000 nM

## CNC(=O)[C@H]1CC12C(=O)N(C1CCN(C3Cc4cccc5cccc3c45)CC1)c1ccccc12 (some centres unmarked)
  EC50: < 100 nM

## O=C1CC2(CN1)C(=O)N(C1CCN(C3Cc4cccc5cccc3c45)CC1)c1ccccc12 (centres unmarked)
  EC50: < 100 nM

## CNC(=O)C[C@]1(C)C(=O)N(C2CCN([C@@]3(C)Cc4cccc5cccc3c45)CC2)c2ccccc21 (single isomer, unassigned)
  EC50: < 100 nM

## NCC(O)CC1(O)C(=O)N(C2CCN(C3Cc4cccc5cccc3c45)CC2)c2ccccc21 (centres unmarked)
  EC50: < 100 nM

## CNC(=O)C[C@@H]1C(=O)N(C2CCN(C3Cc4cccc5cccc3c45)CC2)c2ccccc21 (some centres unmarked)
  EC50: < 100 nM

## COC(=O)NCC1(O)C(=O)N(C2CCN(C3Cc4cccc5cccc3c45)CC2)c2ccccc21 (centres unmarked)
  EC50: > 5000 nM

## CNC(=O)C[C@]1(O)C(=O)N(C2CCN([C@@H]3c4cccc5cccc(c45)[C@H]3O)CC2)c2ccccc21
  EC50: < 100 nM

## CNC(=O)C[C@]1(O)C(=O)N(C2CCN([C@H]3Cc4cccc5cccc3c45)CC2)c2ccccc21
  EC50: < 100 nM

## CN1CC2(CC1=O)C(=O)N(C1CCN([C@H]3c4cccc5cccc(c45)[C@@H]3O)CC1)c1ccccc12 (some centres unmarked)
  EC50: < 100 nM

## CNC(=O)C[C@]1(C)C(=O)N(C2CCN([C@@H]3Cc4cccc5cccc3c45)CC2)c2ccccc21
  EC50: < 100 nM

## COCCC1(C)C(=O)N(C2CCN([C@H]3c4cccc5cccc(c45)C3O)CC2)c2ccccc21 (some centres unmarked)
  EC50: < 100 nM

## CNC(=O)CC1C(=O)N(C2CCN(C3CC[C@H]4CCCc5cccc3c54)CC2)c2ccccc21 (some centres unmarked)
  EC50: < 100 nM

## CNC(=O)C[C@@]1(C)C(=O)N(C2CCN([C@@H]3c4ccccc4CC[C@H]3O)CC2)c2ccccc21
  EC50: > 5000 nM

## O=C1NCC2(N1)C(=O)N(C1CCN(C3Cc4cccc5cccc3c45)CC1)c1ccccc12 (centres unmarked)
  EC50: < 100 nM

## CNC(=O)CC1C(=O)N(C2CCN(C3Cc4cccc5ccc(OC)c3c45)CC2)c2ccccc21 (centres unmarked)
  EC50: > 5000 nM

## COCCC1(O)C(=O)N(C2CCN([C@@H]3Cc4cccc5cccc3c45)CC2)c2ccccc21 (some centres unmarked)
  EC50: > 5000 nM

## CNC(=O)C[C@H]1C(=O)N(C2CCN(C3Cc4cccc5cccc3c45)CC2)c2ccccc21 (some centres unmarked)
  EC50: < 100 nM

## CN(C)C(=O)CC1(F)C(=O)N(C2CCN(C3Cc4cccc5cccc3c45)CC2)c2ccccc21 (centres unmarked)
  EC50: < 100 nM

## CC1(CC(N)=O)C(=O)N(C2CCN(C3Cc4cccc5cccc3c45)CC2)c2ccccc21 (centres unmarked)
  EC50: < 100 nM
